Binding of CDR-mutated scFvs to a peptide of the spike HR2 region

All variants were tested on one target, the spike HR2 peptide PDVDLGDISGINAS (SARS-CoV-2).

Each scFv is VH, the linker GGGGSGGGGSGGGGS, VL, as in the parent Ab-14, and differs from it in the CDRs of the light chain only.
VH: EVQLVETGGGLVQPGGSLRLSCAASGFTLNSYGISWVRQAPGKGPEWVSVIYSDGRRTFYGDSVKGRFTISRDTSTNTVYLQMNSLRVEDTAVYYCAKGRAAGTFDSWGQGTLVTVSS
VL: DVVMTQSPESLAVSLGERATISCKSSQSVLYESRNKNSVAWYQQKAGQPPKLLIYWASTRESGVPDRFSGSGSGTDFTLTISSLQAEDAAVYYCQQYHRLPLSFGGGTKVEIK

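The parent was found by panning a naive human phage display library on the peptide. Variants in AAYL50 differ from the parent at up to three CDR positions; double and triple changes were sampled at random. AlphaSeq pools MATa yeast showing the antibodies with MATalpha yeast showing the peptide. Pairs that bind mate more often; barcode pairs of the diploids are counted by sequencing. Scores were corrected for input abundance and mapped to Kd with protein pairs of known affinity run in the same pool. Mating was done three times.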

Variants are written as CDR1, CDR2 and CDR3 of the light chain (limits as in the source). Parent: KSSQSVLYESRNKNSVA, WASTRES, QQYHRLPLS.
All variants listed here change Q96 of the VL, counted from its first residue.
The Kd shown is the geometric mean over detected replicates; a lower Kd is a better binder.
"nd" marks a missing value. The strain was present, yet no cells mated with the target were sequenced in any replicate, which points to weak or no binding.
Empty control strains, which show no peptide, gave a signal in 18% of pairings with library AAYL50; the median was 15 µM and 95% of these signals were weaker than 970 nM. No background was subtracted. For each scFv, signals with the empty controls are counted beside the result.

CDR-L1	CDR-L2	CDR-L3	Kd (apparent)	replicates with signal	empty controls
RSSQSVLYESRNKNSVA	WASTRES	NHYHRLPLS	270 nM	2 of 3	2 of 9
KSSQQVLYESRNKNSVA	WASTRES	QLYHRLPLS	8.3 nM	3 of 3	1 of 9
KSSQSVLYESRNNNSVA	WASTRES	QMYHHLPLS	5.0 µM	3 of 3	3 of 9
KSSQSVLYESRNKNSVA	WASTYES	QKYHRSPLS	nd	0 of 3	2 of 9
KSSQSVLYESRNKNSVA	WAHTRES	QGYHTLPLS	1.2 µM	3 of 3	1 of 9
KSSQSVLYESRNKNSVA	WWSTRES	QWYHRTPLS	7.2 µM	1 of 3	1 of 9
KSSISVLYESRNKNSVA	WASGRES	QNYHRLPLS	nd	0 of 3	1 of 9
HSSQSVLYESRNKNSVA	WASTRCS	QCYHRLPLS	50 nM	3 of 3	2 of 9
KSSQSVLYESRNKNQVA	WASTRES	QEYHRLPLS	2.2 µM	3 of 3	0 of 9
KSSQSVTYESRNKNSVA	WASTRES	QSYGRLPLS	100 nM	3 of 3	1 of 9
KSSQSVLYESRNKNSVA	WASTRES	QNYYRLPRS	140 µM	2 of 3	4 of 9
KSSQSVLYESANKNSVA	WASTRES	QRYHRQPLS	4.8 µM	3 of 3	1 of 9
KSSQSVLYESRNKNSLA	WQSTRES	QFYHRLPLS	nd	0 of 3	0 of 9
KSSQSGLYESRNKNSVA	WASTRES	QLVHRLPLS	840 nM	3 of 3	8 of 9
KSSQSVLYESRNKLSVA	WASTRES	QFYHRLPNS	nd	0 of 3	3 of 9
KSSQSVLYESRNINSVA	WASTREG	QHYHRLPLS	120 nM	3 of 3	1 of 9
KSSQSVWYESRNKNSVA	WCSTRES	QTYHRLPLS	190 nM	1 of 3	0 of 9
KSSQSVLYESRNKNSVR	WASTRES	QCYHRLPLH	nd	0 of 3	1 of 9
KSSQSVLWEYRNKNSVA	WASTRES	QPYHRLPLS	37 nM	3 of 3	1 of 9
KSSCSVLYESRNKNSVA	WADTRES	QIYHRLPLS	nd	0 of 3	0 of 9
KSSQSVLYESRNKNSVA	WACTRES	QFYHRLRLS	nd	0 of 3	4 of 9
KSSQSVLYESRNKNSYA	WASTRES	QSYHRLPLS	nd	0 of 3	0 of 9
KSSQSVLYESRNKNSVA	WASGRES	QHYHRLPLS	nd	0 of 3	1 of 9
KSSQSVLYNSRNKNSVA	WASTRES	RGYHRLPLS	nd	0 of 3	1 of 9
KSSQSVLYESRSKSSVA	WASTRES	QSYHRLPLS	380 nM	3 of 3	5 of 9
GSSPSVLYESRNKNSVA	WASTRES	QWYHRLPLS	4.1 µM	2 of 3	5 of 9
KSSQSVLYESRSKNSVA	WASTRES	HGYHRLPLS	2.7 µM	1 of 3	1 of 9
KSSQSVLYESRNKNSVA	WASTRES	QLYHRLPLS	990 nM	2 of 3	0 of 9
KSSQSVLYESRNFHSVA	WASTRES	QHYHRLPLS	nd	0 of 3	0 of 9
KSSQSVLYESRNKRSVA	WCSTRES	QIYHRLPLS	2.4 µM	3 of 3	3 of 9
KVSQSVLYESRNKNSVA	WASTRES	QSYHRLPLY	1.5 nM	3 of 3	6 of 9
KPSQSVLYESRNKNSVA	WASTRSS	QLYHRLPLS	2.8 µM	2 of 3	3 of 9
KSSQTVLYQSRNKNSVA	WASTRES	QCYHRLPLS	1.3 µM	3 of 3	2 of 9
KSSQSVLYESRNKNNVA	YASTRES	QAYHRLPLS	1.1 nM	3 of 3	0 of 9
KSSQSVLYESFNKNSVA	WASTRES	QPDHRLPLS	27 µM	1 of 3	2 of 9
KSSQSVLYESCNKNSVA	WASHRES	QDYHRLPLS	200 nM	3 of 3	8 of 9
KSSQSVLYESRNKMSVA	WASTRES	QLYHRLPLH	36 nM	3 of 3	3 of 9
KSSQRVLYESRDKNSVA	WASTRES	QIYHRLPLS	23 nM	3 of 3	0 of 9
KSSQSVLYESRNKNSVA	WASMQES	QCYHRLPLS	nd	0 of 3	0 of 9
KSSQSVLGESRNKNSVA	RASTRES	QSYHRLPLS	2.3 nM	3 of 3	1 of 9
KSSQSVLYESRNKNKYA	WASTRES	QMYHRLPLS	5.4 µM	1 of 3	5 of 9
KSSSSVLYESRNKNSVA	WASTRES	QMYHRLPIS	1.2 µM	3 of 3	1 of 9
KSSQSVLYESDNINSVA	WASTRES	QGYHRLPLS	84 nM	3 of 3	1 of 9
KSSQSVLYWSRNKNSVA	WASTRES	QCYERLPLS	15 µM	3 of 3	3 of 9
KSSQSVLYESHWKNSVA	WASTRES	QYYHRLPLS	nd	0 of 3	1 of 9
KSSQSVLYESRNKNSYA	WASTRES	QDYVRLPLS	24 µM	1 of 3	1 of 9
KSSQSVLYESRNKPSVA	WASTRES	QMYHRLPCS	11 µM	2 of 3	3 of 9
KSSQSVLYESRNKNSVA	WASTRES	QDYHMLWLS	nd	0 of 3	0 of 9
KSSQSVLYEMRNKNSVA	WASTRIS	QYYHRLPLS	850 nM	3 of 3	1 of 9
KSSQSVLYESRNKNSVA	WASTRES	QWYHCLPLS	17 nM	3 of 3	3 of 9
KSSQSVLYESRNSNSVA	WASTRES	QAYHRRPLS	nd	0 of 3	0 of 9
KSSQSVLYESRGKNSVA	WASTRES	QHYHRLPLS	180 nM	3 of 3	1 of 9
KSSQFVLYESRNKNSVA	WASTRES	QAYHRLPLS	28 nM	3 of 3	3 of 9
KSSQSVEYESRNKNSVA	WASTRES	QSEHRLPLS	nd	0 of 3	1 of 9
KSSQSVLVESRNKNSNA	WASTRES	QCYHRLPLS	nd	0 of 3	0 of 9
KSSQHVLYESRNKNSDA	WASTRES	QFYHRLPLS	840 nM	1 of 3	3 of 9
KSSQSVLYESRNKMSVA	WASTRES	QNYHRLPLS	nd	0 of 3	0 of 9
KSSQSVLYESRNKNSVA	WASTRES	QEFWRLPLS	36 nM	3 of 3	5 of 9
KSSQSVLYNSRNKNSVP	WASTRES	QRYHRLPLS	8.1 µM	1 of 3	5 of 9
KSSQSVLYVSINKNSVA	WASTRES	QKYHRLPLS	nd	0 of 3	0 of 9
KSSQSGLYESRNKFSVA	WASTRES	QNYHRLPLS	nd	0 of 3	0 of 9
KSSQSVLYESRNKVSVA	WASTRES	QIYHRLPLL	nd	0 of 3	0 of 9
KSSRSVLYESRNKNSHA	WASTRES	QIYHRLPLS	nd	0 of 3	2 of 9
KSEQSVFYESRNKNSVA	WASTRES	QVYHRLPLS	15 nM	3 of 3	4 of 9
KSSQSVLYESYNKNIVA	WASTRES	QFYHRLPLS	nd	0 of 3	2 of 9

Top 4 of the variants detected in all replicates, tightest first:

{"CDR-L1": "KSSQSVLYESRNKNNVA", "CDR-L2": "YASTRES", "CDR-L3": "QAYHRLPLS", "Kd (apparent)": "1.1 nM", "replicates with signal": "3 of 3", "empty controls": "0 of 9"}
{"CDR-L1": "KVSQSVLYESRNKNSVA", "CDR-L2": "WASTRES", "CDR-L3": "QSYHRLPLY", "Kd (apparent)": "1.5 nM", "replicates with signal": "3 of 3", "empty controls": "6 of 9"}
{"CDR-L1": "KSSQSVLGESRNKNSVA", "CDR-L2": "RASTRES", "CDR-L3": "QSYHRLPLS", "Kd (apparent)": "2.3 nM", "replicates with signal": "3 of 3", "empty controls": "1 of 9"}
{"CDR-L1": "KSSQQVLYESRNKNSVA", "CDR-L2": "WASTRES", "CDR-L3": "QLYHRLPLS", "Kd (apparent)": "8.3 nM", "replicates with signal": "3 of 3", "empty controls": "1 of 9"}

From the AlphaSeq antibody data of Engelhart et al. 2022 (doi:10.1038/s41597-022-01779-4), copy in the FLAb collection.